Results on 1 molecule are retold here after patent US20070054841A1, “Method of treatment of systemic injury secondary to burns” (The University of Queensland, priority 2003, published 2007).

The test system of assay [1] is rats with full thickness skin burn. Description: Rat thermal skin burn (30%): bronchoalveolar lavage cell number and lung myeloperoxidase. Format: in vivo, Female Wistar rats. The conditions noted are these: 10 mg/kg SC 30 minutes before burn; 4 hours after burning; versus burn-only rats. As for the experimental part:
A separate series of experiments was performed in the same way to determine myeloperoxidase (MPO) levels in the lung. In this experiment the groups were as follows: Immediately after the 4 hr monitoring period following the burn the lungs were flushed with 10 ml of saline via the pulmonary artery. Bronchoalveolar lavage (BAL) fluid was collected by an irrigation of 1 ml of saline at 37° C. into the lung once through the trachea and the total number of cells present in the lavage fluid was determined. Approximately 50% of the left lung was weighed, then homogenized in 1 ml solution of 0.05% sodium azide in 0.1M PBS (pH 6.4), and then sonicated and centrifuged. The MPO levels in the supernatants of lungs were determined using a tissue MPO assay, and the results were calculated as absorbance/tissue weight (g). Samples of affected skin, lung, liver and kidney were collected for histopathology.

Assay [2] addresses T1, C5a receptor (Homo sapiens, UniProt P21730).
T1 construct: as monitored in sensitive assays for chemotaxis and polarisation of neutrophils; host or cells: neutrophils
T1 sequence (P21730 1-350): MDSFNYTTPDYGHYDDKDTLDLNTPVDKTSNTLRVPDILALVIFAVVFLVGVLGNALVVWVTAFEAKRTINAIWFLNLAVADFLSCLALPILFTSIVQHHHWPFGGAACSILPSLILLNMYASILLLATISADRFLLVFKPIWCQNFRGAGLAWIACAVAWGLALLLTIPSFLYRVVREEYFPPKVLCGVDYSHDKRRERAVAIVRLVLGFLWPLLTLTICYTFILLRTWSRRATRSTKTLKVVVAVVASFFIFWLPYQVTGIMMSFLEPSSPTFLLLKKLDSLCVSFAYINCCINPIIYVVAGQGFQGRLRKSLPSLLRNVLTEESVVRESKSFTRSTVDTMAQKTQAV
The conditions noted are these: chemotaxis and polarisation of neutrophils; Finch et al 1999; cited from earlier work.

SMILES strings stand for the structures.

For `CC(=O)N[C@@H](Cc1ccccc1)C(=O)N[C@H]1CCCNC(=O)[C@H](CCCNC(=N)N)NC(=O)[C@H](Cc2c[nH]c3ccccc23)NC(=O)[C@@H](CC2CCCCC2)NC(=O)[C@@H]2CCCN2C1=O` [PMX53, AcPhe[Orn-Pro-D-Cyclohexylalanine-Trp-Arg]], in assay [1], the “increase in lung myeloperoxidase (MPO) levels” value is listed as “significantly inhibited”. In addition, the agonist activity result in assay [2] is given as “devoid of detectable agonist activity”.
